Assay results reported in patent US9340574B2, “Inhibitors of protein tyrosine phosphatases” (Indiana University Research and Technology Corporation, priority 2012, dated 2016).

Chains of the proteins cited; added tags and fusions are not shown. Residues count along the entry.
UniProt P43378, 277-582 limits assumed: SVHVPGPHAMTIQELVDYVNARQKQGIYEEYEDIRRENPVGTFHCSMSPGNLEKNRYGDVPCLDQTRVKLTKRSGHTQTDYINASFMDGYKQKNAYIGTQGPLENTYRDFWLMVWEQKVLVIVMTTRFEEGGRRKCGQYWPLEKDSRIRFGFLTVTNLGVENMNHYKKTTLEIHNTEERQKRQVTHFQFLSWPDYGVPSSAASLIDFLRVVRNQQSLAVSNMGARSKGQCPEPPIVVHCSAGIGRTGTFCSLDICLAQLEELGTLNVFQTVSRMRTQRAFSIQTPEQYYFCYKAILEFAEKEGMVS

Experiments:
[1] = target: PTP-MEG2 (Homo sapiens (Human), UniProt P43378); test: pNPP hydrolysis enzyme assay, PTP-MEG2; details: read-out: IC50 for PTP-MEG2; pNPP substrate, pH 7.0, 25° C.
[2] = system: C2C12 myotubes; test: Insulin signaling in C2C12 myotubes; details: 1 hour pretreatment, 100 nM insulin 30 min
[3] = system: 3T3-L1 differentiated adipocytes; test: Insulin signaling in 3T3-L1 differentiated adipocytes; details: 3T3-L1 adipocytes, 1 hour pretreatment before insulin
[4] = system: insulin signaling in mouse primary hepatocytes; test: Insulin signaling in mouse primary hepatocytes (Western blot); assay type: cell-based; details: 200 nM concentration
Method: FIGS. 4A-B depict the ability of PTP-MEG2 inhibitor Compound 7 to sensitize insulin signaling in primary hepatocytes. […] Mouse primary hepatocytes were cultured in 0.5% FBS DMEM medium overnight. Prior to insulin stimulation, the cells were pretreated with Compound 7 or 8 for 1 hour. Then the cells were stimulated with 5 nM insulin for 5 minutes. Insulin signaling was analyzed by Western Blots using phospho-specific antibodies. […] Mouse primary hepatocytes were cultured in DMEM medium plus 0.5% FBS for overnight in the presence or absence of insulin or Compound 7 or 8. Then the cells were harvested for mRNA isolation and gene expression analysis using real-time PCR. The mRNA levels of Foxo1 target genes were normalized with Ppia as an internal control. […]
Mouse primary hepatocytes were isolated and cultured in DMEM medium with 0.5% FBS for 12 hours, and then were incubated with either vehicle DMSO, Compound 7 (100 nM), or Compound 8 (100 nM) for one hour. Phosphorylated IR, Gsk3β, and Foxo1 and the corresponding total proteins were analyzed by Western blots. […]
Western blot analysis. […] Protein signals were detected by incubation with HRP-conjugated secondary antibodies, followed by ECL detection reagent (Pierce). Western blots were scanned and quantified using the Quantity One software (Bio-Rad).

[5] = system: HepG2 hepatocytes; test: Insulin signaling in HepG2 hepatocytes; details: HepG2, 1 hour pretreatment, 10 nM insulin 30 min

Compound | IC50 [1] [µM] | insulin signaling (phospho-Akt, phospho-IR) [2] | insulin signaling (phospho-Akt, phospho-IR) [3] | effect on insulin-mediated phosphorylation [4] | insulin signaling (phospho-IR, phospho-Akt) [5]
CCc1ccc(C(=O)NCCCCC(NC(=O)C(Cc2ccc(C(F)(F)P(=O)(O)O)cc2)NC(C)=O)C(N)=O)cc1 (stereo not drawn) | 9 | – | – | – | –
COc1cc(CC(=O)NCC(NC(=O)C(CCCNC(=O)c2cccc(I)c2)NC(=O)C(Cc2ccccc2)NC(=O)c2ccc(C)c(Br)c2)C(N)=O)ccc1O (stereo not drawn) | > 1 | not | not | no effect | not
